According to PubChem BioAssay AID1346378 (National Center for Advancing Translational Sciences (NCATS), 2018):
“And” between values parts separate entries of the source, which are not always exact repeats. Equal values may be shown once. The list shows a part of the results, in another mix than the full data. The source made the active and inactive calls. No stated cut-off is given here; in the data, active means activity change below about -50%; inconclusive means mostly about -30% to -49%; inactive means weaker than that.

Chains of the proteins cited; added tags and fusions are not shown. Lines headed by an entry give the natural chain unless they say otherwise; changes in a name come on top.
UniProt Q9BTU6: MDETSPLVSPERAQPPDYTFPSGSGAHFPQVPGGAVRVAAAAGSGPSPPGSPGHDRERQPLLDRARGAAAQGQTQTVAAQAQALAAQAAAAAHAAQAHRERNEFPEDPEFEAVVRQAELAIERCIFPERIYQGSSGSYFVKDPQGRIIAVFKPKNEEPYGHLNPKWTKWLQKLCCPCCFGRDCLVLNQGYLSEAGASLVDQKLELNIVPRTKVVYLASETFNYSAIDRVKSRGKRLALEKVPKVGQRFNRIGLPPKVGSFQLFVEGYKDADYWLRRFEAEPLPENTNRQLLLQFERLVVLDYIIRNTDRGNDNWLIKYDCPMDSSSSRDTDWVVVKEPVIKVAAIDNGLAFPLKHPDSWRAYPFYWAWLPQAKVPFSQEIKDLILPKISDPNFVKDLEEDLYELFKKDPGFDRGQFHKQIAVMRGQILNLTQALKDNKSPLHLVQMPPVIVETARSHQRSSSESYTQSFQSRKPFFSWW

Target: Phosphatidylinositol 4-kinase type 2-alpha (Homo sapiens) (UniProt Q9BTU6)
Assay: qHTS for small molecular inhibitors of PI4K2A;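 on activity change, negative = inhibition: -100% = wells without enzyme as full effect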
Details: purified PI4K2A, ADP-Glo luminescence, 1 h; at 76.9 µM, hits give low values
Text: The phosphatidylinositol 4-phosphate (PI4P) is emerging as a key regulator of lipid transfer in ER-membrane contact sites. The four different phosphatidylinositol 4-kinase (PI4K) enzymes generate PI4P in different membrane compartments supporting distinct cellular processes many of which are crucial for the maintenance of cellular integrity but also hijacked by intracellular pathogens. The goal of this screening project is to search for small molecular inhibitors of PI4K2A based on a high throughput screening strategy.The ADP-Glo assay was used as a starting point to develop a miniaturized version for HTS applications. To implement the HTS screen, the PI4K ADP-Glotrade mark Kinase assay (Promega, V9102) was miniaturized for the 1536-well format used at NCGC.
For the robotic screening, the ADP-Glo assay using the ADP-Glotrade mark Kinase Assay kit from Promega was miniaturized and optimized on 1536-well white solid bottom plates (Greiner Bio-one). The substrate, 1.2 mM PI, prepared in the assay buffer (40mM Tris pH7.5, 20mM MgCl2, 1mM EGTA, 0.4% Triton X-100, 0.5mM DTT, 0.5mg/ml BSA) and PI4K2A enzyme, diluted also in the assay buffer to 4ug/mL, were dispensed onto the plates in equal volumes (1microl/well), pinned with 23 nL/well tested compounds or control followed by dispensation of 1microl/well 300microM ATP. The plates were incubated for one hour. Then, 2 µL/well of ADP-Glo reagent was added and incubated for 40 minutes. Next, 4microL/well of Kinase Detection Buffer was added to the plates and incubated for additional 40 minutes. All incubation steps were performed at ambient temperature. The resulting luminescence signal was measured on Viewlux plate reader (PerkinElmer). Adenosine, a partial non-specific inhibitor, was used as a positive control at 100microM final concentration to assess the assay's quality and plate-to-plate reproducibility. We also used "no enzyme" control to gauge the assay's maximal potential inhibition (IC100).

| Compound | activity change, negative = inhibition |
| --- | --- |
| c1nnnn1CCn1cnnn1 | inactive: -0.628% |
| O=P(Nc1nccs1)(c1ccccc1)c1ccccc1 | inactive: 6.83% |
| CC(C)C(=O)NC(Sc1ccccc1)C(Cl)(Cl)Cl (stereo not drawn) | inactive: -2.66% |
| O=P(Nc1nc2ccccc2s1)(c1ccccc1)c1ccccc1 | inactive: 14.1% |
| C[C@H]1OP(=O)(Oc2ccccc2)[C@H](O)[C@H](O)[C@H]1N=[N+]=[N-] (stereo partly drawn) | inactive: -0.748% |
| Cc1cc([N+](=O)[O-])cc([N+](=O)[O-])c1O | inactive |
| CN(C(=O)Cc1ccccc1)[C@H]1CC[C@@]2(CCCO2)C[C@@H]1N1CCCC1 | inactive: 1.48% |
| Nc1ccc(CCCCOc2ccccc2)cc1 | inactive: -11.6% |
| COc1ccc(N)c([N+](=O)[O-])c1[N+](=O)[O-] | inactive: 6.54% |
| CN(C)C1(CNC(=O)c2ccc(Cl)c(S(N)(=O)=O)c2)CCCCC1 | inactive: 6.81% |
| O=P(Nc1ccccn1)(c1ccc(Br)cc1)c1ccc(Br)cc1 | inactive: 1.59% |
| Nc1ccc([As](=O)(O)c2ccc([N+](=O)[O-])cc2)cc1 | inactive: -6.77% |
| C(Cc1nn[nH]n1)Cc1nn[nH]n1 | inactive: 1.34% |
| O=C(OC1CN2CCC1CC2)c1cccc(Cl)c1 (stereo not drawn) | inactive: -1.92% |
| CC(=O)NC(SC(=S)N(C)C)C(Cl)(Cl)Cl (stereo not drawn) | inactive: 5.64% |
| O=[N+]([O-])c1ncn(CCn2cnc([N+](=O)[O-])n2)n1 | inactive: 0.008% |
| O=[N+]([O-])c1ccc(O)c(/C=N/Nc2ccc([N+](=O)[O-])cc2[N+](=O)[O-])c1 | inactive: -3.29% |
| O=[As](O)(c1ccccc1)c1ccc(O)cc1 | inactive: -1.69% |
| O=P1(N(CCCl)CCCl)OCCC2CCCCN21 (stereo not drawn) | inactive: 0.822% |
| O=C(NC1CCS(=O)(=O)C1)NP(=S)(Oc1ccccc1)Oc1ccccc1 (stereo not drawn) | inactive: -5.44% |
| CCNC(=S)/N=C(\N)N[N+](=O)[O-] | inactive: -2.22% |

| Compound | activity change, negative = inhibition |
| --- | --- |
| c1ccc(-c2nn[nH]n2)c(-c2nn[nH]n2)c1 | inactive: -8.95% |
| Cc1ccc(NP(=O)(Oc2cccc(C)c2)Oc2cccc(C)c2)nc1 | inactive: 0.85% |
| Cc1ccccc1OP(=O)(Nc1ccccn1)Oc1ccccc1C | inactive: -0.788% |
| CC(NC(=O)COC(=O)C(O)(c1ccccc1)c1ccccc1)c1ccccc1 (stereo not drawn) | inactive: 0.785% |
| CN(C)C(=O)Oc1noc2ccccc12 | inactive: -4.01% |
| O=c1c2cc([N+](=O)[O-])ccc2[nH]c2c([N+](=O)[O-])cc([N+](=O)[O-])cc12 | inactive: 4.42% |
| COC(=O)c1cc2c(s1)N=C(c1ccccc1)N(C)P2(=O)N1CCOCC1 (stereo not drawn) | inactive: 0.476% |
| CC(=O)NC(SC(=S)N(CC(C)C)CC(C)C)C(Cl)(Cl)Cl (stereo not drawn) | inactive: -4.76% |
| Cc1ccc(OP(=O)(Nc2ccccn2)Oc2ccc(C)cc2)cc1 | inactive: -4.84% |
| O=C(OC1CN2CCC1CC2)c1ccccc1 (stereo not drawn) | inactive: 4.73% |
| CN(C(=O)Cc1ccc(Cl)c(Cl)c1)[C@@H]1CCCC[C@@H]1N1CCCC1 | inactive: 2.89% |
| CCC(=O)N1C2C3N(C(=O)CC)C1C1N(C(=O)CC)C(C(N1C(=O)CC)N3C(=O)CC)N2C(=O)CC | inactive: 6.26% |
| CCc1cc(O)c([N+](=O)[O-])c(C)c1[N+](=O)[O-] | inactive: 3.55% |
| CC(C)(C)C(=O)NC(Sc1ccccc1)C(Cl)(Cl)Cl (stereo not drawn) | inactive: -1.55% |
| O=P1(Nc2nc3ccc(Cl)cc3s2)COc2ccccc2O1 (stereo not drawn) | inactive: 2.83% |
| CCOc1ccc(C2=NCC(CBr)S2)cc1 (stereo not drawn) | inactive: 2.76% |
| CC(=O)Nc1ccc([As](=O)(O)O)c(O)c1 | inactive: -5.94% |
| CC(=O)Nc1ccc(Oc2c([N+](=O)[O-])cc([N+](=O)[O-])cc2[N+](=O)[O-])cc1 | inactive: 0.668% |
| N#C/C(=C\c1ccc(N(CCBr)CCBr)cc1)C(N)=O | inactive: 3.33% |
| CC(=O)c1ccc(N2CC2c2ccncc2)cc1 (stereo not drawn) | inactive: -1.53% |
| COC(=O)C1(C)COP(=O)(NCc2ccccc2)OC1 (stereo not drawn) | inactive: -0.877% |

| Compound | activity change, negative = inhibition |
| --- | --- |
| Cc1ccccc1CN(C)C(=O)COC(=O)C(O)(c1ccccc1)c1ccccc1 | inactive: -2.4% |
| C[C@@H]1C=CCP(=O)(Oc2ccccc2)O1 (stereo partly drawn) | inactive: 1.02% |
| C[C@H]1OP(=O)(Oc2ccccc2)C[C@@H]2O[C@@H]21 (stereo partly drawn) | inactive: 6.39% |
| COc1ccccc1OP(=O)(Nc1ccc(C)cn1)Oc1ccccc1OC | inactive: -0.452% |
| Cc1ccc(OP(=O)(Nc2nccs2)Oc2ccc(C)cc2)cc1 | inactive: -0.917% |
| CCNC(C)Cc1ccc2c(c1)OCO2 (stereo not drawn) | inactive |
| Clc1ccc(Cl)c(NC2=NCC(CBr)S2)c1 (stereo not drawn) | inactive: 1.29% |
| CN1CCCC(OC(=O)C(c2ccccc2)c2ccccc2)C1 (stereo not drawn) | inactive: -2.13% |
| NC(=O)c1cc([N+](=O)[O-])cc([N+](=O)[O-])c1N | inactive: 1.29% |
| CN(C(=O)Cc1ccc(Cl)c(Cl)c1)[C@H]1CCCC[C@H]1N1CCCC1 | inactive: -3.02% |
| Cc1ccc(N/C(=N/P(=O)(N2CCOCC2)N2CCOCC2)N2CCOCC2)cc1 | inactive: 6.14% |
| O=[N+]([O-])C1C(O)C(O)C([N+](=O)[O-])C(O)C1O (stereo not drawn) | inactive: 0.143% |
| CC(C)CC(=O)NC(Sc1ccc(Cl)cc1)C(Cl)(Cl)Cl (stereo not drawn) | inactive: -0.34% |
| Nc1cc(N)c2nonc2c1[N+](=O)[O-] | inactive: -12.3% |
| Oc1ccccc1CNc1ccccn1 | inactive: 2.81% |
| O=C(NC(Sc1ccncn1)C(Cl)(Cl)Cl)c1ccccc1 (stereo not drawn) | inactive: -2.08% |
| CCOP(=O)(Nc1ccccc1)OCC | inactive: 16.6% |
| Cc1cc(SC(NC(=O)c2ccc(F)cc2)C(Cl)(Cl)Cl)ncn1 (stereo not drawn) | inactive: -4.82% |
| CN(C(=O)Cc1ccc(Cl)c(Cl)c1)[C@H]1CCCC[C@@H]1N1CCCC1 | inactive: -5.62% and inactive: -0.0001% and inactive: 2.55% |
| Cc1ccc(NP(=O)(Oc2ccccc2F)Oc2ccccc2F)nc1 | inactive: -2.02% |
| O=C(O)c1ccccc1[As](=O)(O)O | inactive: 0.199% |
